Measurements taken from ChEMBL document CHEMBL4834393, “Building a Chemical Toolbox for Human Pregnane X Receptor Research: Discovery of Agonists, Inverse Agonists, and Antagonists Among Analogs Based on the Unique Chemical Scaffold of SPA70” (J Med Chem, 2021).
The source made the active and inactive calls.

What was measured:
Format in all cases: cell-based
[1] = molecular target: T1, Vitamin D3 receptor (Homo sapiens) (UniProt P11473); assay: Agonist activity at human VDR expressed in HEK293T cells by luciferase reporter assay
T1 sequence (whole entry): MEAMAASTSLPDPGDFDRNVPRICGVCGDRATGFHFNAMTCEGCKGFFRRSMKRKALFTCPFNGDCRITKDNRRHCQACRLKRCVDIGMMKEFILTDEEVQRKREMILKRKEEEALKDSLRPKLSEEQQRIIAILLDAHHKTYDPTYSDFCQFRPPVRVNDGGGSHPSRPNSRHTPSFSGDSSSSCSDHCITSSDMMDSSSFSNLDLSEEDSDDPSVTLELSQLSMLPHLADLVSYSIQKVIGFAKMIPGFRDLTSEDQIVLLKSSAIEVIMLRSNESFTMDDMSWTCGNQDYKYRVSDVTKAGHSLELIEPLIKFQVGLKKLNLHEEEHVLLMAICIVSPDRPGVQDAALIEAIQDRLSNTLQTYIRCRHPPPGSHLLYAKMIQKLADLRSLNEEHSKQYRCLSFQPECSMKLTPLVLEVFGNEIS

[2] = molecular target: T1, Vitamin D3 receptor (Homo sapiens); assay: Antagonist activity at human VDR expressed in HEK293T cells in presence of 1alpha,25-dihydroxyvitamin D3 by luciferase reporter assay
[3] = molecular target: T2, Bile acid receptor (Homo sapiens) (UniProt Q96RI1); assay: Agonist activity at human FXR expressed in HEK293T cells by luciferase reporter assay
T2 sequence (whole entry): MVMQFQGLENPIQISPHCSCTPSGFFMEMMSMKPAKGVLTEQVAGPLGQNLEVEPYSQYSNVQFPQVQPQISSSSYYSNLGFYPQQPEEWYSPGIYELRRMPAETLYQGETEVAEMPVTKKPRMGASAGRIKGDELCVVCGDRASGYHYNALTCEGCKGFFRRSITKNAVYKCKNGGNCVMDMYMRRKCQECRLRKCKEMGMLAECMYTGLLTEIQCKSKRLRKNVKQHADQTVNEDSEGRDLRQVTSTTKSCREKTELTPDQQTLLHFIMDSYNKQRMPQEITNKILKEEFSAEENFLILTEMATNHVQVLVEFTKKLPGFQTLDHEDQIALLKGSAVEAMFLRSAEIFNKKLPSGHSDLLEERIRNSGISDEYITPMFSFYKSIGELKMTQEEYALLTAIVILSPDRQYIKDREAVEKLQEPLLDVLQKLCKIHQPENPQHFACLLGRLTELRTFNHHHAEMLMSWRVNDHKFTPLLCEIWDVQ

[4] = molecular target: T2, Bile acid receptor (Homo sapiens); assay: Antagonist activity at human FXR expressed in HEK293T cells in presence of GW4064 by luciferase reporter assay

Measured: Activity

CCc1c(S(=O)(=O)c2ccc(C(C)(C)C)cc2)nnn1-c1cc(OC)ccc1OC
inactive: all assays above
